Data on two compounds can be found in ChEMBL document CHEMBL1156829 (Proc Natl Acad Sci U S A, 2008).

This series has as its system Huh-7. Description: NOVARTIS: Cytotoxicity against human hepatocellular carcinoma cell line (Huh7). The class given is toxicity, cell-based.

What is called CC50 is the concentration that lowers cell viability or growth by half. Compound `O=[N+]([O-])c1ccc(NCCN(CCO)c2ccc([N+](=O)[O-])cc2[N+](=O)[O-])c(Cl)c1` yielded a CC50 of 36.1 µM.
Consider `Cc1nc(Nc2cccc([N+](=O)[O-])c2)nc(Nc2cccc([N+](=O)[O-])c2)c1[N+](=O)[O-]`, for which the CC50 was > 100 µM.
